Assay results: ChEMBL document CHEMBL1201862, “PubChem BioAssay data set” (2004)
The list shows a part of the results, in another mix than the full data. Only a part of the results of these assays is listed, not drawn at random. Some of the results follow. Activity calls are given as the source filed them. The calls are words filed in the database; no cut-off is given here.

Amino acid sequences for entries named in this document (tags omitted).
UniProt P84022, whole entry, looked up: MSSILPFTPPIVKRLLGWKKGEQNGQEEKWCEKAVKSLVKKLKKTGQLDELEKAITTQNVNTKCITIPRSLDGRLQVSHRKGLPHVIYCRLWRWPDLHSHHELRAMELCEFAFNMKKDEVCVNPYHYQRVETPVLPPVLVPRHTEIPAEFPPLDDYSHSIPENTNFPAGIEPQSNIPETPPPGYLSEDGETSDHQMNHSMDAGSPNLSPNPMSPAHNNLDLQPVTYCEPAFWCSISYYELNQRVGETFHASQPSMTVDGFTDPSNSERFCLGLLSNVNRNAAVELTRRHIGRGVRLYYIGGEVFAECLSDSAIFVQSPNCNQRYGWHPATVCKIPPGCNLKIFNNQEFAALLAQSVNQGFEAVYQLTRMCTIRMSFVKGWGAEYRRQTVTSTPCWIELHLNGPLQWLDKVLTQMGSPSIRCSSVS
UniProt Q9NUW8, whole entry, looked up: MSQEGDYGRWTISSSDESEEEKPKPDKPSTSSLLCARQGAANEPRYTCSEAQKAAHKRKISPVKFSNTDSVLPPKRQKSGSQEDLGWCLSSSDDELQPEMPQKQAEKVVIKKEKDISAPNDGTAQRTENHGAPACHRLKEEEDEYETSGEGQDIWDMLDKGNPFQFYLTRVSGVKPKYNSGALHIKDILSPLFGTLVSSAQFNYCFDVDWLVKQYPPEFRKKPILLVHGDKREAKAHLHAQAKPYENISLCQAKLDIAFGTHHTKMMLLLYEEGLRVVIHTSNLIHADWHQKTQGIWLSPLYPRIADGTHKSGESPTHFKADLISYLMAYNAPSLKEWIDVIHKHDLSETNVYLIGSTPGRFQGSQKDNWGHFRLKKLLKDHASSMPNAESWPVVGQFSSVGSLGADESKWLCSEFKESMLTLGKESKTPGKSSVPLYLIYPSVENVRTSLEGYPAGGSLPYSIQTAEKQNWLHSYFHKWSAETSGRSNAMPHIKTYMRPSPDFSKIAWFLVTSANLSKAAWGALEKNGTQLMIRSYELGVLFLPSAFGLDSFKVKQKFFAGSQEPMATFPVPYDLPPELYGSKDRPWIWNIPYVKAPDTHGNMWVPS

What follows are molecules tested against T1, DNA polymerase iota (Homo sapiens) (UniProt Q9UNA4) (assay: qHTS for Inhibitors of Polymerase Iota. [Related pubchem assays (depositor defined):AID588623]). Conditions: not given.
T1 sequence (whole entry): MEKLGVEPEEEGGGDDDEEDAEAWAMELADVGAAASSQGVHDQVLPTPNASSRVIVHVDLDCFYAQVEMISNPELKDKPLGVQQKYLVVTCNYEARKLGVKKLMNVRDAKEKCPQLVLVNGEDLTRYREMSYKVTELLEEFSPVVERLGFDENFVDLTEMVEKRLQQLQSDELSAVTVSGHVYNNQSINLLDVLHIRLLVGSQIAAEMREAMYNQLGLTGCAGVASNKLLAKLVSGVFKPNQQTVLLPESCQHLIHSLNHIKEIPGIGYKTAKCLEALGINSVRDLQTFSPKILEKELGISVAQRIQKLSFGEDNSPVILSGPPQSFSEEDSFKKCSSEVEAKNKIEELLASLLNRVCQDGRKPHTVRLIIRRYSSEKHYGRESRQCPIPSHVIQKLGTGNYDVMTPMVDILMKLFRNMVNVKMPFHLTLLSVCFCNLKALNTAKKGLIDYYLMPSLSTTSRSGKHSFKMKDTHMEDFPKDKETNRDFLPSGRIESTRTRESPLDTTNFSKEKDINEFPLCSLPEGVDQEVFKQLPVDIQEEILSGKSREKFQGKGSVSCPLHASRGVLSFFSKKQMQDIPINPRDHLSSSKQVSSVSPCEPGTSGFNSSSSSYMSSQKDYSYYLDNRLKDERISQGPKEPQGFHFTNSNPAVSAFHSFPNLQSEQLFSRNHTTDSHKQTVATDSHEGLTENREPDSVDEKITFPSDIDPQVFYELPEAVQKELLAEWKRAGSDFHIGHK
Assay type: functional

| SMILES | Potency |
| --- | --- |
| O=Cc1ccc(N(CCCl)CCCl)cc1 | inactive |
| Nc1ccc2c(ccc3cccnc32)n1 | inactive |
| CCc1nc2c([nH]1)c1no[n+]([O-])c1c1no[n+]([O-])c21 | active: 10 µM |
| O=P1(N(CCCl)CCCl)SCCCS1 | inactive |

The molecules below were run on HepG2 (assay: qHTS for Inhibitors of TGF-b: Cytotox Counterscreen. [Related pubchem assays (depositor defined):AID588855, AID588860]). Conditions: Homo sapiens.
Assay type: functional

| SMILES | Potency |
| --- | --- |
| Cc1ccc(Nc2c([N+](=O)[O-])cc([N+](=O)[O-])cc2[N+](=O)[O-])cc1 | inactive |
| O=[N+]([O-])c1cc([N+](=O)[O-])c(NCC2CCS(=O)(=O)C2)c([N+](=O)[O-])c1 (stereo unspecified) | active: 17.8 µM |
| Nc1ccc2c(ccc3cccnc32)n1 | inactive |
| CCc1nc2c([nH]1)c1no[n+]([O-])c1c1no[n+]([O-])c21 | inactive |
| O=C(CBr)c1ccc(Cl)cc1 | inactive |
| CC1=NCCc2c1[nH]c1ccccc21 | inactive |

Each molecule was assayed against Mothers against decapentaplegic homolog 3 (Homo sapiens) (UniProt P84022) (assay: qHTS for Inhibitors of TGF-b. [Related pubchem assays (depositor defined):AID588856, AID588860]). Conditions: not given.
Assay type: functional

| SMILES | Potency |
| --- | --- |
| Cc1ccc(Nc2c([N+](=O)[O-])cc([N+](=O)[O-])cc2[N+](=O)[O-])cc1 | active: 15.8 µM |
| O=[N+]([O-])c1cc([N+](=O)[O-])c(NCC2CCS(=O)(=O)C2)c([N+](=O)[O-])c1 (stereo unspecified) | active: 11.2 µM |
| CCc1nc2c([nH]1)c1no[n+]([O-])c1c1no[n+]([O-])c21 | active: 15.8 µM |

Each molecule was assayed against Tyrosyl-DNA phosphodiesterase 1 (Homo sapiens) (UniProt Q9NUW8) (assay: qHTS for Inhibitors of human tyrosyl-DNA phosphodiesterase 1 (TDP1): qHTS in cells in absence of CPT.). Conditions: not given.
Assay type: functional

| SMILES | Potency |
| --- | --- |
| Cc1ccc(Nc2c([N+](=O)[O-])cc([N+](=O)[O-])cc2[N+](=O)[O-])cc1 | active: 5.8 µM |
| ClCCN(CCCl)c1ccc(C=C2C=CC=C2)cc1 | active: 1.41 µM |
| O=[N+]([O-])c1cc([N+](=O)[O-])c(NCC2CCS(=O)(=O)C2)c([N+](=O)[O-])c1 (stereo unspecified) | active: 5.8 µM |

Each molecule was assayed against Tyrosyl-DNA phosphodiesterase 1 (Homo sapiens) (UniProt Q9NUW8) (assay: qHTS for Inhibitors of human tyrosyl-DNA phosphodiesterase 1 (TDP1): qHTS in cells in presence of CPT.). Conditions: not given.
Assay type: functional

| SMILES | Potency |
| --- | --- |
| Cc1ccc(Nc2c([N+](=O)[O-])cc([N+](=O)[O-])cc2[N+](=O)[O-])cc1 | active: 16.4 µM |
| ClCCN(CCCl)c1ccc(C=C2C=CC=C2)cc1 | active: 1.26 µM |
| Cn1c(=O)[nH]cc(N(CCCl)CCCl)c1=O | active: 0.461 µM |
| O=[N+]([O-])c1cc([N+](=O)[O-])c(NCC2CCS(=O)(=O)C2)c([N+](=O)[O-])c1 (stereo unspecified) | active: 2.91 µM |
| Cc1cc(N(CCCl)CCCl)ccc1C=O | active: 25.9 µM |
